1 substance from patent US20260053892A1, “Induction and Expansion of Regulatory T Cells” (Board of Regents of the University of Nebraska, priority 2022, published 2026) can be followed below.

For the experiment, the system named is Tregs. In words: Treg profiles by flow cytometry in blood, lymph nodes and spleen of treated mice. Format: in vivo, C57BL/6 male mice. As to the method:
C57BL/6 male mice (5-6 weeks old) were purchased from Jackson Laboratories (Bar Harbor, ME). Mice were weighed and divided into four treatment groups (n=3 per group): 1) PBS (phosphate-buffered saline; control), 2) GM-CSF (0.1 mg/kg), 3) low dose IL-2 (2.5×10^4 IU; human recombinant interleukin-2 (PeproTech, Cranbury, NJ)), and 4) GM-CSF (0.1 mg/kg) and low dose IL-2 (2.5×10^4 IU). Following a period of acclimation, mice were injected intraperitoneally (i.p.) with daily GM-CSF (Group 4) (Days 0-4). On Days 5-9, daily treatment began for Groups 1-3 and IL-2 treatment began for Group 4. On Day 10, the mice were sacrificed, blood was collected, and spleen and lymph nodes were harvested.
Following treatment, whole blood, lymph nodes and spleens were collected to determine T-cell profiles via flow cytometric analysis. Peripheral blood, lymph nodes, and splenocytes were fluorescently labeled using antibodies against cell surface antigens including CD3, CD4, CD25, CD8, CD19, CD127, ICOS, GITR, CD39, CD62L, CD44, GITR, and CTLA-4, and for the intracellular markers FoxP3 and STAT5. Whole blood, lymph nodes, and splenocytes were labeled with PerCP Cyanine 5.5-anti-CD3 (eBioscience/Thermo Fisher Scientific, Waltham, MA), APC-anti-CD19 (eBiosciences), PE-anti-CD25 (eBiosciences), PE-cyanine7-anti-CD4 (eBiosciences), PerCP-eFluor710-anti-CD39 (eBiosciences), Alexa Fluor™ 488-anti-CD278 (ICOS) (Biolegend, San Diego, CA), FITC-anti-CD127 (Biolegend), FITC-anti-CD44, Alexa Fluor™ 488-anti-CTLA-4, Alexa Flour™ 700-anti-GITR, FITC-anti-CD8, and PerCP Cyanine 5.5-anti-CD62L. Intracellular staining was performed following permeabilization for 45 minutes at 4° C. Cells were labeled with APC-anti-FoxP3 (eBioscience) or anti-STAT5-Pacific Blue. Samples were analyzed with an LSRII flow cytometer and FACSDiva™ Software (BD Biosciences, San Diego, CA).
All values are expressed as mean±SEM using ANOVA (mean±SEM, n=3). *=p≤0.05; **=p≤0.01; *** p≤0.001. Data were analyzed using GraphPad Prism 9.3.1 software (La Jolla, CA).

As for human recombinant interleukin-2 [IL-2], the “CD4+CD25+FOXP3+ Tregs” value is listed as “increase” (blood, FIG. 4) and “increase” (spleen, FIG. 3). The “CD25+CD127− Tregs” value by setting is: (blood, FIG. 5) “increase”; (spleen, FIG. 6) “increase”. In addition, the “CD25+ICOS+ Tregs” value (blood, FIG. 7) is “did not significantly induce” and the “CD25+ICOS+ Tregs” value (spleen, FIG. 8) is recorded as “did not significantly induce”. Also, the “CD4+CD25+ Tregs” value (lymph nodes, FIG. 2) is reported as “only a mild increase”. Where the note is “lymph nodes, FIG. 9”, the “CD25+GITR+ Tregs” value is “small increase”. The “CD25+CD39+ Tregs” value (spleen, FIG. 10) is “increase”. Also, the “CD25+CD62L− Tregs” value (spleen, FIG. 11) is recorded as “small increase”.
